In patent US4346097A, “Method for treating convulsions with pyrazole-4-carboxamide derivatives” (Warner-Lambert Company, priority 1980, dated 1982):

Test: Rotorod Test, TD50
Conditions: in vivo, median minimal neurotoxic dose
Source text: The term convulsions is intended to mean the characteristic body movements which are associated with the group of chronic central nervous system disorders termed, epilepsies.
These procedures are described in E. A. Swinyard, et al., Epilepsia, 19, 409 (1978), which is incorporated herein by reference. The TD50 is defined as the median minimal neurotoxic dose.

CCC1(c2ccccc2)C(=O)NC(=O)NC1=O [PHENOBARBITAL]
TD50: 69 mg/kg
